Tested on: Sanfilippo B mice (Naglu−/−)
Experiment: Pilot in vivo study of CBD on cellular neuroinflammation (CD68 and GFAP brain immunostaining)
Settings: 9 months old Naglu−/− mice; 100 mg/kg CBD in sesame oil, oral gavage, once/day, 4 weeks; brain sections; vs vehicle

Substance: Cannabidiol [CBD]
- astrocyte activation (percentage immunoreactivity of GFAP): decreased
- microglia activation (percentage immunoreactivity of CD68): decreased

Source: patent US20260272952A1, “CANNABINOIDS FOR TREATING NEUROINFLAMMATION” (Lundquist Institute for Biomedical Innovation at …, priority 2022, published 2026)
